Results: PubChem BioAssay AID1009 (NMMLSC, 2008)
The entries are a selection whose mix differs from that of the whole data set. Calls of active or inactive are those of the source. No stated cut-off is given here; in the data, active means inhibition above about 40%.

Chains of the proteins cited; added tags and fusions are not shown.
UniProt Q07820, whole entry: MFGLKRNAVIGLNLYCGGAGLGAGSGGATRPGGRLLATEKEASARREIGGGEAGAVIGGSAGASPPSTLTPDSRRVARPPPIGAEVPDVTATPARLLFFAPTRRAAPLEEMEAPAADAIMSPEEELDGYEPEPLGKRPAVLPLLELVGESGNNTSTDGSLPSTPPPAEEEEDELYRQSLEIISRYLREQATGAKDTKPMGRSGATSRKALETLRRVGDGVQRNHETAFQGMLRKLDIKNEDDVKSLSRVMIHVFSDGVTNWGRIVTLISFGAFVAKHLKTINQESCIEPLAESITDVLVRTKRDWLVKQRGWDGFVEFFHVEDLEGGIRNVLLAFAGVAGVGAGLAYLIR

biological target: Induced myeloid leukemia cell differentiation protein Mcl-1 (Homo sapiens) (UniProt Q07820); assay: inhibitors of Bim peptide binding to Mcl-1, primary screen, biochemical, bead-based flow cytometry, multiplex (AID 1009); conditions: Bim peptide-Mcl-1 binding, at 10 µM, hits give high values;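 further: 0% = no compound tracer wells and 100% = peptide blocker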

| Structure (SMILES) | inhibition |
| --- | --- |
| CP(=O)(Nc1ccccc1)Oc1ccc(F)cc1 (stereo not given) | inactive: -4% |
| COc1ccc(OP(C)(=O)Nc2cccc(Br)c2)cc1 (stereo not given) | inactive: -3% |
| CN(C)CCOC(=O)C(O)(c1ccccc1)C1CCCCC1 (stereo not given) | inactive: 0% |
| COc1ccc(NP(C)(=O)Oc2ccccc2OC)cc1 (stereo not given) | inactive: -4% |
| O=[N+]([O-])c1cc([N+](=O)[O-])c(NCC2CCS(=O)(=O)C2)c([N+](=O)[O-])c1 (stereo not given) | inactive: 0% |
| CCOP(C)(=S)SCC(=O)NC(C)(CC)C(=O)O (stereo not given) | inactive: -1% |
| CP(=O)(Nc1ccc2c(c1)OCCO2)Oc1ccccc1 (stereo not given) | inactive: -4% |
| Cc1ccccc1NP(C)(=O)Nc1ccccc1C | inactive: 0% |
| O=[N+]([O-])c1cc([N+](=O)[O-])c(-n2nnc3ccccc32)c([N+](=O)[O-])c1 | inactive: -2% |
| Cc1nc2ccc3ccccc3c2s1.O=[N+]([O-])c1cc([N+](=O)[O-])c(O)c([N+](=O)[O-])c1 | inactive: -4% |
| CN1CCCCC1COC(=O)C1(O)c2ccccc2CCc2ccccc21 (stereo not given) | inactive: -1% |
| COc1ccccc1OP(C)(=O)Nc1c(C)cccc1C (stereo not given) | inactive: 0% |
| CCCOc1ccc(NP(C)(=O)Oc2ccc(Cl)cc2)cc1 (stereo not given) | inactive: -1% |
| CP(=O)(Nc1ccc(SC(F)(F)F)cc1)Oc1ccccc1 (stereo not given) | inactive: -3% |
| CC1=NCCc2c1[nH]c1ccccc21.O=[N+]([O-])c1cc([N+](=O)[O-])c(O)c([N+](=O)[O-])c1 | inactive: 0% |
| CCOC(=O)c1ccc(NP(C)(=O)Oc2cc(C)cc(C)c2)cc1 (stereo not given) | inactive: -1% |
| Cc1cc(C)cc(OP(C)(=O)Nc2ccc(C)cc2C)c1 (stereo not given) | inactive: 0% |
| Cc1ccc(C)c(NP(C)(=O)Oc2ccccc2)c1 (stereo not given) | inactive: -4% |
| Cc1cc(C)cc(OP(C)(=O)Nc2ccccn2)c1 (stereo not given) | inactive: -1% |
| CP(=O)(Nc1cccc(Br)c1)Oc1ccccc1 (stereo not given) | inactive: 1% |

| Structure (SMILES) | inhibition |
| --- | --- |
| CCN(CC)CCCOC(=O)C(O)(c1ccccc1)c1ccccc1 | inactive: -1% |
| O=[N+]([O-])c1ccc2c(c1)C=Nc1ccccc1O2 | inactive: 0% |
| Cc1cccc(C)c1OP(C)(N)=O (stereo not given) | inactive: 0% |
| CC(C)(C)c1ccc(OP(C)(=O)Nc2ccc(SC(F)(F)F)cc2)cc1 (stereo not given) | inactive: -3% |
| Cc1ccc(NP(C)(=O)Oc2ccccc2)c(C)c1 (stereo not given) | inactive: 1% |
| COc1ccccc1OP(C)(=O)Nc1ccc(C)cc1 (stereo not given) | inactive: 7% |
| CCOC(=O)c1ccc(NP(C)(=O)Oc2ccccc2)cc1 (stereo not given) | inactive: -4% |
| Cc1cc(C)cc(OP(C)(N)=O)c1 (stereo not given) | inactive: -2% |
| COc1ccc(OP(C)(=O)Nc2cccc(F)c2)cc1 (stereo not given) | inactive: 0% |
| COc1ccccc1OP(C)(=O)Nc1cc(Cl)ccc1C (stereo not given) | inactive: -4% |
| CP(=S)(Nn1cnnc1)Oc1ccccc1 (stereo not given) | inactive: -1% |
| CP(=O)(Nc1ccccc1Br)Oc1ccccc1 (stereo not given) | inactive: -1% |
| COc1ccccc1OP(C)(=O)Nc1ccccc1 (stereo not given) | inactive: -2% |
| CP(=O)(Oc1ccccc1)OC(c1ccccc1)C(F)(F)F (stereo not given) | inactive: -1% |
| Cc1cccc(C)c1OP(C)(=O)Nc1ccc(SC(F)(F)F)cc1 (stereo not given) | inactive: 12% |
| Cc1cc(C)cc(OP(C)(=O)Nc2ccc(SC(F)(F)F)cc2)c1 (stereo not given) | inactive: -2% |
| CP(=O)(NC(=O)Nc1ccccc1)Oc1ccccc1 (stereo not given) | inactive: -4% |
| CCOC(=O)c1ccc(NP(C)(=O)Oc2ccc(OC)cc2)cc1 (stereo not given) | inactive: -7% |
| CCOP(C)(=S)SCC(=O)NC(C)C(=O)O (stereo not given) | inactive: 3% |
| CP(=O)(Nc1ccccn1)Oc1ccc(Cl)cc1 (stereo not given) | inactive: -1% |
